The record followed here is PubChem BioAssay AID1044 (The Scripps Research Institute Molecular Screening Center, 2008).

Chains of the proteins cited; added tags and fusions are not shown.
UniProt P21453, whole entry: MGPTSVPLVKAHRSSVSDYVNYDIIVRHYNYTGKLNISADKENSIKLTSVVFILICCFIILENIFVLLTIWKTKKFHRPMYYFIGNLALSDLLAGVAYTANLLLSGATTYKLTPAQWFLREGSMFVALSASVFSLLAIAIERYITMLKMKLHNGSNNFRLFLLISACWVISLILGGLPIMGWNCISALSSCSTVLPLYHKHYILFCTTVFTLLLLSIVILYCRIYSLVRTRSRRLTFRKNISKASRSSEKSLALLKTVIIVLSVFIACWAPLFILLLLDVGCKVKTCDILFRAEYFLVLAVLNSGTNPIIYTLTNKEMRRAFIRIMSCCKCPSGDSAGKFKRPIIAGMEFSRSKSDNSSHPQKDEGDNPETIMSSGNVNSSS

Molecules are shown by their SMILES. The entries are a selection whose mix differs from that of the whole data set. The source made the active and inactive calls. Cut-off read from the data, not from the text of the source: active = activation above about 80%; inactive = the rest.

The assay addresses Sphingosine 1-phosphate receptor 1 (Homo sapiens) (UniProt P21453). The assay can be described thus: S1P1 (human) receptor agonism (AID 1044). The settings on record: S1P1 agonist cell-based reporter assay; at 4.5 µM; hits give high values.
Consider `O=[N+]([O-])C1([N+](=O)[O-])COCOC1`, for which the activation is inactive: -5.25%.
